Assay outcomes as filed in PubChem BioAssay.
NR1D1 modulator = modulates human Rev-erb alpha binding to DNA; activity, % at 10 µM; hit rate 0.79% among 370,000; P20393; Rev-erbα–FITC-DNA binding, fluorescence polarization, 90 min; AID 1259318;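 active = activity above about 14%, limit read from the data; passing the limit was not always enough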
ERp5 inh = ERp5 (human) disulfide isomerase inhibition; Q15084; ERp5 insulin aggregation, absorbance 650 nm, 90 min; inhibition, % at 9.99 µM; hit rate 0.05% among 350,000; AID 651711;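 active = mean replicate inhibition above about 25%, with every replicate also reaching it, limit read from the data, passing the limit was not always enough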
GSIS activator = primary screen for activators of insulin secretion dependent on glucose, INS-1E cells, GLuc reporter luminescence; hit rate 0.61% among 370,000; activation, % at 16.6 µM; INS-1E GLuc reporter insulin secretion, 2-3 h;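 active = lowest replicate activation of at least 40%, so every replicate reaches that level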
PDI turbidity = blocks human protein disulfide isomerase activity; P07237; PDI insulin aggregation turbidity, A650, 90 min; inhibition, % at 10 µM; hit rate 0.052% among 350,000;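 active = mean inhibition across replicates of 30% or more, whatever share of single replicates reach that level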
SMARCA2 activ = increases SMARCA2 function in MMTV reporter cells; MG213 cells, MMTV-luciferase reporter, dexamethasone, overnight; activation, % at 9.1 µM; hit rate 1% among 370,000; AID 652017; in the data active = activation above about 7.8%
Yeast UUG start = alters start codon recognition fidelity in yeast. S. cerevisiae UUG-firefly luciferase reporter, luminescence/redox ratio. 350,000 tested, 0.13% active. activity score, % at 18.7 µM. AID 602363;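 active means replicate mean at a twofold rise or more, about +100% in these data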;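 further: firefly luciferase made from a UUG start codon reports start codon fidelity; reporter light over untreated wells divided by growth signal over untreated wells; some hits fall short of that in this replicate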
Each line names hits and unclear results; the compound was inactive in the other large screens. Only some compounds are listed: those with a hit (about 2.1% of all), similar ones and a draw of the others.

CO[C@@H]1CN(C)C(=O)c2cc(NS(C)(=O)=O)ccc2OC[C@H](C)N(Cc2nccs2)C[C@@H]1C	none (no result: NR1D1 modulator, PDI turbidity, SMARCA2 activ)
O=C1N/C(=N\N=C\c2cccs2)SC1Cc1cccc(Cl)c1 (stereo not drawn)	GSIS activator 86 (no result: ERp5 inh, Yeast UUG start)
O=C(C[C@H]1CC[C@@H]2[C@H](COC[C@@H](O)CN2C(=O)Nc2ccc3c(c2)OCO3)O1)N1CCN(c2ccccc2)CC1	none (no result: NR1D1 modulator, PDI turbidity, SMARCA2 activ, Yeast UUG start)
CC1CCC(C(C)C)C(OCC(O)CNC(C)c2ccccc2)C1 (stereo not drawn)	GSIS activator 199 (no result: Yeast UUG start)
CN(C)CC(=O)N1CC2(C1)[C@@H](c1ccccc1)[C@@H](CO)N2S(=O)(=O)c1ccccc1	none (no result: NR1D1 modulator, PDI turbidity, SMARCA2 activ, Yeast UUG start)
CCN1[C@H](C(=O)OC)[C@@H](CO)[C@@H]2Cn3c(ccc(C4=CCCCC4)c3=O)[C@@H]21	none (no result: NR1D1 modulator, PDI turbidity, SMARCA2 activ, Yeast UUG start)
C[C@@H]1CCCCO[C@@H](CN(C)Cc2ccc(C(=O)Nc3ccccc3N)cc2)[C@@H](C)CN([C@H](C)CO)C(=O)c2cc(N(C)C)ccc2O1	none (no result: NR1D1 modulator, ERp5 inh, PDI turbidity, SMARCA2 activ, Yeast UUG start)
COc1ccc(CCNc2oc(-c3ccc(OC)c(OC)c3)nc2P(=O)(OC)OC)cc1OC	GSIS activator 68 (no result: ERp5 inh, Yeast UUG start)
COc1ccc(OC)c2c1C(=O)C(Cl)=C(Cl)C2=O	GSIS activator 58
COc1ccc(OC)c2c1C(=O)c1ccccc1C2=O	none (no result: ERp5 inh, PDI turbidity, Yeast UUG start)
CCc1cc2c(COC(=O)c3cccc(S(C)(=O)=O)c3)cc(=O)oc2cc1O	GSIS activator 50
COc1ccccc1NC(=O)N1CCCCN2[C@H](CO)[C@H](c3ccc(-c4cccc(C#N)c4)cc3)[C@@H]2C1	none (no result: NR1D1 modulator, PDI turbidity, SMARCA2 activ)
COc1cc2c(cc1OC)/C(=C/C(=O)c1ccc(OC)c([N+](=O)[O-])c1)NCC2	GSIS activator 51
O=C1CSC(c2ccccc2)N1c1ccc(F)cc1F (stereo not drawn)	GSIS activator 48
O=C1CSC(c2ccccc2)N1c1ccccc1F (stereo not drawn)	none
CCOC(=O)c1c(CN(C)C)n(-c2ccc(C)cc2)c2cc(Br)c(O)cc12	PDI turbidity 49 (no result: ERp5 inh, Yeast UUG start)
C[C@@H]1CCCCO[C@@H](CN(C)C(=O)Cc2ccccc2)[C@@H](C)CN([C@@H](C)CO)C(=O)c2cc(NC(=O)CCCN(C)C)ccc2O1	none (no result: NR1D1 modulator, PDI turbidity, SMARCA2 activ)
Nc1nc(N)nc(-c2cccc([N+](=O)[O-])c2)n1	GSIS activator 60 (no result: PDI turbidity)
Cc1ccccc1-c1ccc([C@@H]2[C@@H](CO)N3CCCCN(S(=O)(=O)c4ccc(F)cc4)C[C@@H]23)cc1	none (no result: NR1D1 modulator, PDI turbidity, SMARCA2 activ)
Cc1ccc(S(=O)(=O)N(C)C[C@H]2Oc3c(NS(=O)(=O)c4cccs4)cccc3C(=O)N([C@@H](C)CO)C[C@H]2C)cc1	none (no result: NR1D1 modulator, PDI turbidity, SMARCA2 activ)
CC(C)CCn1c(N2CCCC2)nc2c1c(=O)[nH]c(=O)n2C	GSIS activator 46
CCCCCn1c(SC(C)C(C)=O)nc2c1c(=O)[nH]c(=O)n2C (stereo not drawn)	GSIS activator 73
C/C(Cl)=C/CSc1nc2c(c(=O)[nH]c(=O)n2C)n1C(C)C	GSIS activator 74 (no result: ERp5 inh)
CC(C)CCn1c(N2CCC(C(N)=O)CC2)nc2c1c(=O)[nH]c(=O)n2C	none
CCCCn1c(NC(C)CC)nc2c1c(=O)[nH]c(=O)n2C (stereo not drawn)	GSIS activator 129 (no result: ERp5 inh)
C[C@H]1CCCCO[C@H](CN(C)Cc2ccc(C(=O)O)cc2)[C@@H](C)CN([C@@H](C)CO)C(=O)c2cc(NC(=O)NC3CCCCC3)ccc2O1	none (no result: NR1D1 modulator, PDI turbidity, SMARCA2 activ)
COc1cccc(-c2ccc(C3[C@H]4CNC[C@@H]3N4S(=O)(=O)c3cccc(Cl)c3)cc2)c1 (stereo partly drawn)	none (no result: NR1D1 modulator, PDI turbidity, SMARCA2 activ, Yeast UUG start)
CN(C)CC(=O)N[C@@H]1C=C[C@@H](CC(=O)NCCN2CCCCC2)O[C@@H]1CO	SMARCA2 activ 7.8 (no result: PDI turbidity)
CN(C)CC(=O)N[C@H]1C=C[C@H](CC(=O)NCCN2CCCCC2)O[C@H]1CO	none (no result: NR1D1 modulator, PDI turbidity, SMARCA2 activ)
O=C(Nc1ccc(SC(F)F)cc1)c1cccc2nc3ccccc3nc12	GSIS activator 82 (no result: ERp5 inh)
CN(C)CCOc1ccc(-c2c(-c3ccsc3)sc3ccccc23)cc1	GSIS activator 66
COc1cccc(-c2sc3ccc(OC)cc3c2-c2ccc(OCCN(C)C)cc2)c1	GSIS activator 132
COc1ccc(-c2sc3ccccc3c2-c2ccc(OCCN(C)C)cc2)cc1	none
CC(=O)N(C)C[C@H]1Oc2cc(C#CCC3CCCC3)ccc2S(=O)(=O)N([C@H](C)CO)C[C@@H]1C	none (no result: NR1D1 modulator, PDI turbidity, SMARCA2 activ)
CN=c1oc2ccc(Cl)cc2cc1C(N)=O	none (no result: ERp5 inh, GSIS activator)
